# Values quoted from earlier work, collected in patent US20210037830A1, “PHYTOTOXIC MICRONUTRIENT COMBINATIONS FOR SELECTIVE CONTROL OF INVASIVE PLANT SPECIES” (Edaphix, LLC, priority 2019, published 2021).
# System: French marigold
# Conditions: in vivo; cited from earlier work
substance,measurement,value
iron,concentration inducing micro-nutrient toxicity,2000 ng/mL
